{
  "sequences": {"note": "Amino acid sequences for entries named in this document (tags omitted). A change or cut given only in a name is not applied to a line headed by its entry.", "UniProt P17405": "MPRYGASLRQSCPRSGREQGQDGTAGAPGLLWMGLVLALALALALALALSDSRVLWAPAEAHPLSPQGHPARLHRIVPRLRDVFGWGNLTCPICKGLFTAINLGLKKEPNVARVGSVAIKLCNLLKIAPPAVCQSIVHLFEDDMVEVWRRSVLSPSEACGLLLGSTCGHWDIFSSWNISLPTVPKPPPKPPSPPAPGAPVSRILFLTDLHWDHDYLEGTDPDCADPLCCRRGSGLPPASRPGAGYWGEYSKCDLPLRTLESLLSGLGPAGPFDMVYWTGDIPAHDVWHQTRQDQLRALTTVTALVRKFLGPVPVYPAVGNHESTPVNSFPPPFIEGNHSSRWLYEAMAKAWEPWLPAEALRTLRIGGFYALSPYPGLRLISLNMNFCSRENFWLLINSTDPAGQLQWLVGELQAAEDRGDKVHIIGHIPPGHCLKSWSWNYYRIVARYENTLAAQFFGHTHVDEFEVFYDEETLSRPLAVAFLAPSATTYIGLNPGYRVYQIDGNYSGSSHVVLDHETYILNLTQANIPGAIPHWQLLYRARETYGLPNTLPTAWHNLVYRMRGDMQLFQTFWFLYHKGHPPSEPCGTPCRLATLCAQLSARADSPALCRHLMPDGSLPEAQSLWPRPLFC"},
  "source": "PubChem BioAssay AID504937",
  "about": "(National Center for Advancing Translational Sciences (NCATS), 2011)",
  "note": "The whole screen tested about 340,000 compounds, of which about 20 (0.006%) were called active. All entries are inconclusive by the source's own rule. Clear calls are listed elsewhere. The call rests on the fitted dose curve; in most records, active means well fitted inhibition curve with a large enough effect; inconclusive means small, poorly fitted or top-dose-only effect; inactive means no such curve, though single readings can be large or run the other way. Potency means the concentration at half of the fitted maximal effect.",
  "data": [
    {"biological_target": "Sphingomyelin phosphodiesterase (Homo sapiens) (UniProt P17405)", "assay": "Inhibitors of Secretory Acid Sphingomyelinase (S-ASM): qHTS", "settings": "placental ASM, HMU-PC fluorogenic substrate (series up to 57.5 µM), 60 min", "values": [
      {"smiles": "Nc1cccc2c([As](=O)(O)O)cccc12", "Potency": "inconclusive: 1.26 µM"},
      {"smiles": "CCOC(=O)Nc1ccc([As](=O)(O)O)c(O)c1", "Potency": "inconclusive: 112 µM"},
      {"smiles": "O=C(Nc1cc([As](=O)(O)O)ccc1O)c1ccccc1", "Potency": "inconclusive: 35.5 µM"},
      {"smiles": "O=P1(Nc2nc3ccc(Cl)cc3s2)COc2ccccc2O1", "note": "(centres undefined)", "Potency": "inconclusive: 112 µM"}
    ]}
  ]
}
